Assay results as given in ChEMBL document CHEMBL4020831, “Discovery of GDC-0853: A Potent, Selective, and Noncovalent Bruton's Tyrosine Kinase Inhibitor in Early Clinical Development” (J Med Chem, 2018).

Protein sequences, listed by entry. Tags and fused reporters are not part of them. Lines headed by an entry give the natural chain unless they say otherwise; changes in a name come on top.
UniProt Q06187: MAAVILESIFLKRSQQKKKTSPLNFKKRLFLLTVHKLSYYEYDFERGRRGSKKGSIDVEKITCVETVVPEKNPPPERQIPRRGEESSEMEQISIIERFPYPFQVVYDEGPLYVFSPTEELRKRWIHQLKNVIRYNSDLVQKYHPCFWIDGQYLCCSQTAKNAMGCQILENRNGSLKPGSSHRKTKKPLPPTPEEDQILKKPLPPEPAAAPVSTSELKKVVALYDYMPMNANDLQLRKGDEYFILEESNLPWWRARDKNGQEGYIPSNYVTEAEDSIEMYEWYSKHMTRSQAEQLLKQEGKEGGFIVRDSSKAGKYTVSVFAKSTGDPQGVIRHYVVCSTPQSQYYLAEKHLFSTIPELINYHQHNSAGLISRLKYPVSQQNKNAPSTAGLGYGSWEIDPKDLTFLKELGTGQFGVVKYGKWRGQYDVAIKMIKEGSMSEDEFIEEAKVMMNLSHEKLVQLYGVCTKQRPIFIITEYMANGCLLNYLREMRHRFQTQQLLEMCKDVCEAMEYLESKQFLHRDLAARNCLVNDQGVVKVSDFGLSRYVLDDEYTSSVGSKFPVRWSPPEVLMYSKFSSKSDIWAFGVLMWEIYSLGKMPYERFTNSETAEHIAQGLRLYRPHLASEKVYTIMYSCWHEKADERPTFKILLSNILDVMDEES

Columns and labels:
[1] = molecular target: T1, Tyrosine-protein kinase BTK (Homo sapiens, UniProt Q06187)
[2] = molecular target: T1, Tyrosine-protein kinase BTK; test: Inhibition of human recombinant C-terminal polyhistidine tagged BTK (1 to 659 residues)-mediated synthetic peptide substrate phosphorylation expressed in baculovirus-infected insect cells

IC50 [1] [nM]	Ki [2] [nM]	SMILES
27.6	–	CN1CCN(c2ccc(Nc3cc(-c4cc(F)cc(N5CCn6c(cc7c6CCCC7)C5=O)c4CO)cn(C)c3=O)nc2)CC1
36.5	0.69	Cn1cc(-c2cc(F)cc(N3CCn4c(cc5c4CCCC5)C3=O)c2CO)cc(Nc2ccc(N3CCN(C4COC4)CC3)cn2)c1=O
